Measurements published in patent US20140335050A1, “METHODS, COMPOSITIONS, AND KITS FOR THE TREATMENT OF CANCER” (The General Hospital Corporation, priority 2011, published 2014).

How the values were obtained:
Format in all cases: cell-based, human
MU89 melanoma cells = assay: Tumor cell/T cell co-culture IL-2 ELISA (Melan-A/MART-1 specific TCR Jurkat line J-TCR-M1 as responder)
Source text: The assay relies on the use of an antigen-specific responder T cell line. […] The chosen TCR reacts specifically to a Melan-A/MART-1 decapeptide (26[…]35) presented by HLA-A2, with appropriate triggering of T cell activation. We then used a lentiviral vector system for transduction of this specific TCR into the J.RT3-T3.5 T cell line, a Jurkat cell derivative which fails to express endogenous surface TCR through a mutation in its beta chain.
(§1) We evaluated several candidate melanoma cell lines for the ability to stimulate the J-TCR-M1 cell line. Levels of Melan-A/MART-1 (determined by intracellular staining and flow cytometry) and corresponding levels of induced IL-2 (determined by coculture with J-TCR-M1 and IL-2 ELISA) were tested for different melanoma cell lines.
The 480 compounds were tested in six parallel 96 well plates. The first two columns (16 wells) of each plate were used for standards (8 wells), untreated controls (4 wells), and positive controls (4 wells). The other ten columns (80 wells) were used for testing compounds in separate wells. […]
The protocol for evaluation of the cytokine IL-2 was performed using a the BD OptEAI kit, human IL-2 ELISA set from BD Biosciences (San Diego, Calif.) following the manufacturer's recommendations. The absorbance 450 nm was read in a BioRad 3550 plate reader. […] IL-2 levels for experimental samples (pg/ml) were calculated from the standard curve. […]

453A melanoma cells = assay: Tumor cell/T cell co-culture IL-2 ELISA (MART-1 TCR Jurkat cells); conditions: IFN-β 5000 IU/ml for three days
Description: as §1
(§2) Melanoma cells were treated with hits from the primary screen for three days prior to counting and plating for the coculture assay (cells were washed and resuspended in fresh medium that no longer contained the treatment agents during the co-culture). A100 μl volume of 5×10^5 cells/ml tumor cells were mixed with 50 μl of […] T cells in a 96-well V-bottom plate and incubated overnight (16-24 hours). Plates were centrifuged to pellet the cells and 100 μl of supernatant fluid was removed from each well for cytokine assay. To assess antigen-specific T cell responses, a final concentration of 3.33 μg/ml Melan-A/MART-1 peptide (26[…]35 (A27L from wild type)) was added to the co-culture.
(§3) The protocol for evaluation of the cytokine IL-2 was performed using a the BD OptEAI kit, human IL-2 ELISA set from BD Biosciences (San Diego, Calif.) following the manufacturer's recommendations. The absorbance 450 nm was read in a BioRad 3550 plate reader. A standard curve using known concentrations of IL-2 (from 500 to 8 pg/ml) was included in each ELISA plate. IL-2 levels for experimental samples (pg/ml) were calculated from the standard curve.

A375 melanoma cells = assay: as above; conditions: IFN-β 5000 IU/ml for three days
Description: as §1, §2, §3

H59-44T melanoma cells = assay: as above; conditions: IFN-β 5000 IU/ml for three days
Description: as §1, §2, §3

MALME-3M melanoma cells = assay: as above; conditions: IFN-β 5000 IU/ml for three days
Description: as §1, §2, §3

MUX melanoma cells = assay: as above; conditions: IFN-β 5000 IU/ml for three days
Description: as §1, §2, §3

[1] = tested on: U-118 MG glioma cell line; assay: Antibody staining and flow cytometry (intracellular gp100; surface MHC Class I/II); conditions: for Class I MHC, geometric mean of surface staining (W6/32): U-118
Description: Cells were fixed with 1% formaldehyde, permeabilized with 0.1% saponin, stained with monoclonal antibodies to melanocyte antigens. Antibodies were obtained with specificity for: MART-1 from Vector Labs (Burlingame, Calif.); gp100 HMB45 from DakoCytomation (Carpinteria, Calif.) and then visualized with goat anti-mouse FITC-conjugated secondary antibody from Invitrogen (Fredrick, Md.). The level of EGFP was determined by flow cytometry of unfixed cells that were washed and resuspended in 1×PBS.
Cells were plated at a density of 1×10^5 in 1 ml of medium in a 24-well plate and cultured for varying times as indicated in results. Typically, 3 days of culture in the presence of Hsp90 inhibitors was optimal for the functional studies performed. After incubation, cells were collected by trypsinization and then evaluated by flow cytometry.
(§4) Intracellular staining and flow cytometric analyses of cytoplasmic Melan-A/MART-1, and gp100 expression were performed as described previously. Cells were fixed with 1% formaldehyde, permeabilized with 0.1% saponin, stained with monoclonal antibodies to melanocyte antigens. Antibodies were obtained with specificity for: Melan-A/MART-1 from Vector Labs (Burlingame, Calif.); gp100/HMB45 from DakoCytomation (Carpinteria, Calif.) and then visualized with goat anti-mouse FITC-conjugated secondary antibody from Invitrogen (Frederick, Md.). The level of EGFP was determined by flow cytometry of unfixed cells washed and resuspended in 1×PBS. Surface staining of MHC Class I was carried out using the antibody W6/32 on cells harvested with Cell Stripper from MediaTech Inc. (Manassas, Va.) and carried out on ice.
Cell were seeded at 1×10^6 cells in a T25 flask with 10 ml of media for the 4 day IFN-beta pre-treatments. Cells were then harvested and plated in 24 well plate at 1×10^5 cells per well in 1 ml of media for 3 day treatments.
(§5) For surface staining of HLA Class I and II antigens, cells were harvested using CellStripper™ from Mediatech (Manassas, Va.). All staining steps were performed on ice. Following a first incubation with antibody to Class I (W6/32) or Class II (L243) for 30 minutes. Stained cells were washed twice with cold PBS and then stained with a goat anti-mouse FITC secondary antibody to allow for quantitative analysis by flow cytometry. For evaluation of cytoplasmic antigens, including Melan-A/MART-1 and gp100, cells were first fixed in paraformaldehyde and permeabilized with saponin as previously described. Staining for cytoplasmic antigens was carried out at room temperature (22° C.).

[2] = tested on: Jurkat T cell lymphoma cells; assay: Surface antibody staining and flow cytometry (MHC Class I/II)
Description: as §4, §5

[3] = U-118 MG, 3 days, IFN-beta 5000 Units/ml, 17-AEP 1.0, PU-H71 0.3, CCT018159 10.0 μg/ml

B1: IFN-β: IFN-β-1a (Avonex) obtained from Biogen-Idec; SEQ ID NO: 1 (protein, listed as Homo sapiens)
chain: MSYNLLGFLQRSSNFQCQKLLWQLNGRLEYCLKDRMNFDIPEEIKQLQQFQKEDAALTIYEMLQNIFAIFRQDSSSTGWNETIVENLLANVYHQINHLKTVLEEKLEKEDFTRGKLMSSLHLKRYYGRILHYLKAKEYSHCAWTIVRVEILRNFYFINRLTGYLRN
modifications: (1)..(166) IFN-beta-1a
IL-2 after coculture with MART-1 TCR Jurkat cells (MU89 melanoma cells; MU89, IFN-β 5000 IU/ml for three days): 96 pg/mL
Increase of IL-2 levels on co-culture with Jurkat MART-1 TCR cell line (MU89 melanoma cells; MU89 treated with single agent (FIG. 9)): 2 fold
IL-2 after coculture with MART-1 TCR Jurkat cells (453A melanoma cells): 159 pg/mL
IL-2 after coculture with MART-1 TCR Jurkat cells (A375 melanoma cells): 7 pg/mL
IL-2 after coculture with MART-1 TCR Jurkat cells (H59-44T melanoma cells): 23 pg/mL
IL-2 after coculture with MART-1 TCR Jurkat cells (MALME-3M melanoma cells): 289 pg/mL
IL-2 after coculture with MART-1 TCR Jurkat cells (MUX melanoma cells): 12 pg/mL
MHC Class II, geometric mean of surface staining (L2443) ([1]; Giloma-118, three days, IFN-β 5000 Units/ml, IFN-γ 100 ng/ml, PU-H71 0.3 mg/ml): 3
MHC Class I, geometric mean of surface staining (W6/32) ([1]; Giloma-118, three days, IFN-β 5000 Units/ml, IFN-γ 100 ng/ml, PU-H71 0.3): 62
L243 (MHC Class II surface staining) ([1]; U118, single agent): 2.7
W6/32 (MHC Class I surface staining) ([1]; U118, single agent): 299.2
Class I MHC, geometric mean of surface staining (W6/32) ([1]; 4 day IFN-β pre-treatment (5000 Units/ml), then 3 days with fresh IFN-β, with PU-H71 0.3 where labelled (label IFN-β: no inhibitor)): 81
Class I MHC, geometric mean of surface staining (W6/32) ([1]; 4 day IFN-β pre-treatment (5000 Units/ml), then 3 days without IFN-β, with PU-H71 0.3 where labelled (label IFN-β: no inhibitor)): 88
Class I MHC, geometric mean of surface staining (W6/32) ([1]; single agent for 3 days, no IFN-β pre-treatment, IFN-β 5000 Units/ml, PU-H71 0.3): 56
Class I, fold increase relative to untreated control [1, 3]: 2.6 fold
Class I, geometric mean of surface staining (W6/32) [1, 3]: 132
gp100, fold increase relative to untreated control [1, 3]: 1.1 fold
gp100, geometric mean of intracellular staining [1, 3]: 49
MHC Class I, geometric mean of surface staining (W6/32) ([1]; U-118 glioma, three days, IFN-β 5000 Units/ml, PU-H71 0.075-0.3): 62
L243 (MHC Class II surface staining) ([2]; single agent): 1.0
W6/32 (MHC Class I surface staining) ([2]; single agent): 31.1
MHC Class I, geometric mean of surface staining (W6/32) ([2]; three days, IFN-β 5000 Units/ml, IFN-γ 100 ng/ml, PU-H71 0.3 μg/ml): 31
MHC Class II, geometric mean of surface staining (L2443) ([2]; three days, IFN-β 5000 Units/ml, IFN-γ 100 ng/ml, PU-H71 0.3 mg/ml): 1
MHC Class I, geometric mean of surface staining (W6/32) ([2]; three days, IFN-β 5000 Units/ml, PU-H71 0.075-0.3 μg/ml): 65
